Values quoted from earlier work in patent US20240156846A1, “COMPOSITIONS AND METHODS FOR TREATING NEURODEGENERATIVE DISORDERS” (Arizona Board of Regents on Behalf of the University of …, priority 2020, published 2024).

What was measured:
[1] = cited from earlier work
[2] = tested on: Aβ present in the brain of mice; conditions: preclinical trials; cited from earlier work

## bapineuzumab: monoclonal antibody
[1]; another phase three clinical trial
  amyloid load or CSF phosphorylated tau levels between treatment and placebo groups: no significant difference
[1]; phase three trial
  functional or cognitive ability in treated patients: failed to show significant improvement
[2]
  amount of Aβ present in the brain: lower the amount of Aβ present in the brain of mice
